# Measurements as given in patent publication US9676752B2, “Imidazolidine-2,4-dione derivatives” (IPSEN PHARMA S.A.S., priority 2013, dated 2017).
# Amino acid sequences for entries named in this document (tags omitted).
# UniProt P10275, whole entry T878A: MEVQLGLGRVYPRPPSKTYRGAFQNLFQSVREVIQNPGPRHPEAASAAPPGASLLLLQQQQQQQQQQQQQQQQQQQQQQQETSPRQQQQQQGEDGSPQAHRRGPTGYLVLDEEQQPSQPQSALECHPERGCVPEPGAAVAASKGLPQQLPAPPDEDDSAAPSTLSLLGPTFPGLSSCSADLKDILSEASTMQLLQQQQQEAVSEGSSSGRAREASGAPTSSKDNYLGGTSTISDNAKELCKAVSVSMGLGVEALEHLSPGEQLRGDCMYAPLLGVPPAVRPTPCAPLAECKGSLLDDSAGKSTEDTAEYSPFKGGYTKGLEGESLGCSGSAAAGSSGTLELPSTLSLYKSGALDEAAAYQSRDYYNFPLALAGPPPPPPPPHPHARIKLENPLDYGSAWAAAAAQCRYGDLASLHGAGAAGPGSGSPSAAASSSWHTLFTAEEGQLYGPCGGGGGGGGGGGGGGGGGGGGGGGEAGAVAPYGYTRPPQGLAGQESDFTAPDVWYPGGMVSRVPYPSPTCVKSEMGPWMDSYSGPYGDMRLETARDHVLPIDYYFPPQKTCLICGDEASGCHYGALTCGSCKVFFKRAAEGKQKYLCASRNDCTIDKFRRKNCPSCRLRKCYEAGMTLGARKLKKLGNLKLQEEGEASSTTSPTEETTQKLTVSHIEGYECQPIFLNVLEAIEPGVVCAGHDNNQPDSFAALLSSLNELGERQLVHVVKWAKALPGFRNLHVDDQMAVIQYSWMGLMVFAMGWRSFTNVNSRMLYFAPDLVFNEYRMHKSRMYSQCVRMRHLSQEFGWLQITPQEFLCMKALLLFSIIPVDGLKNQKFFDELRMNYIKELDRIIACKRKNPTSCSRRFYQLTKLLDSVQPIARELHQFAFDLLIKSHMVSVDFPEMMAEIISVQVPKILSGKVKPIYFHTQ
# Assays:
# LNCaP = test: Anti-proliferative activity on LNCaP in complete medium; settings: read-out: LNCaP IC50, 144 h incubation, Cell-Titer-Glow
# DU145 = test: Anti-proliferative activity on DU145 in complete medium; settings: read-out: DU145 IC50, 144 h incubation, Cell-Titer-Glow, line does not express androgen receptor
# VCaP = test: Anti-proliferative activity on VCaP in complete medium; settings: read-out: VCaP IC50, Cell-Titer-Glow, reading after 9 days
# androgen receptor = androgen receptor (Homo sapiens, UniProt P10275, T878A); test: Measurement of protein expression of the androgen receptor in LNCaP cells (AR ELISA); settings: read-out: IC50 AR destruction in LNCaP; 3 days treatment, whole cell protein, AR ELISA kit
# [1] = Evaluation of solubility in potassium phosphate buffer pH 7.4; settings: 100 mM potassium phosphate buffer pH 7.4, target 10 μM, 0.1% DMSO, 1 hour room temperature, LC-MS/MS
smiles,measurement,setting,value
CC1(C)C(=O)N(c2ccc(C#N)c(C(F)(F)F)c2)C(=O)N1C/C=C\CN1C(=O)N(c2ccc(C#N)c(C(F)(F)F)c2)C(=O)C1(C)C,pIC50,LNCaP,6.68
same,pIC50,DU145,< 5.00
same,pIC50,VCaP,6.27
same,pIC50,androgen receptor,6.83
same,Solubility,[1],<0.02 µM

# pIC50: −log10 of the molar value.
